Test system: dystrophin IRES
Description: FIGS. 5A-5F. […] (FIG. 5A) Dual luciferase assay performed on lysates from C2C12 cells transfected with the pRDEF vector carrying the exon 5-6 IRES construct. […] Error bars representate s.d. […] The image intensity for the wild-type lane was lowered to allow identification of bands. MHC=myosin heavy chain (loading control). […] Immunoblot was performed on each muscle in duplicate, and the signals for both dystrophin and α-actinin from the resulting 5 lanes were quantified using ImageJ. […] The signals for both utrophin and α-actinin from the resulting 5 lanes were quantified using ImageJ.
Furthermore, treatment with the glucocorticoids prednisone and deflazacort are standard treatment for DMD. […] Because utrophin translation may be regulated by corticosteroids and overexpression can compensate for absent dystrophin, we assessed utrophin levels in the same injected muscles (FIG. 5E).

SMILES: C[C@H]1C[C@@H]2[C@H]([C@@H](O)C[C@@]3(C)[C@H]2CC[C@]3(O)C(=O)CO)[C@@]2(C)C=CC(=O)C=C12 [PDN, 6-methyl-prednisolone]
- downstream FLuc activity (fold change): over 20 fold

— patent US20220127607A1, “METHODS AND MATERIALS FOR ACTIVATING AN INTERNAL RIBOSOME ENTRY SITE IN EXON 5 OF THE DMD GENE” (RESEARCH INSTITUTE AT NATIONWIDE CHILDREN'S HOSPITAL, priority 2014, published 2022)
